Literature values, collected in patent US20150376254A1, “GAMMA-MSH ANALOGUES” (TXP Pharma GmbH, priority 2014, published 2015).

By UniProt entry, the sequences of proteins in these tests, tags left out. Where a name states a change or a piece, a line headed by the entry shows the natural chain unless it says otherwise.
UniProt Q01726: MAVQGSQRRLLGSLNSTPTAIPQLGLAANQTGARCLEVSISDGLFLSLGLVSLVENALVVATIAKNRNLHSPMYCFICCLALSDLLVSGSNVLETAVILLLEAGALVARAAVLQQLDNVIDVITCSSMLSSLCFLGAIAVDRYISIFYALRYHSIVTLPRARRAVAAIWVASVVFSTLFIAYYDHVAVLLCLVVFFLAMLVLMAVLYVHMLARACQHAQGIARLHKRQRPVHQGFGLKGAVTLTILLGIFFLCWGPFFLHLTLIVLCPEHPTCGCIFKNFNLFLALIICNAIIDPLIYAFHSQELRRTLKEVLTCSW

Target: MC1r (Homo sapiens, UniProt Q01726)
Details: J. Med. Chem. 2005, 48, 1839-1848

## γ-MSH
  binding affinity against the MC1r: weak
